Data from patent EP4186514A1, “PHARMACEUTICAL COMPOSITION FOR PREVENTING OR TREATING CHOLANGITIS OR LIVER DISEASE CAUSED BY CHOLANGITIS COMPRISING ADENOSINE DERIVATIVE” (Future Medicine Co., Ltd., priority 2021, dated 2023).

Protein sequences, listed by entry. Tags and fused reporters are not part of them.
UniProt P0DMS8, whole entry: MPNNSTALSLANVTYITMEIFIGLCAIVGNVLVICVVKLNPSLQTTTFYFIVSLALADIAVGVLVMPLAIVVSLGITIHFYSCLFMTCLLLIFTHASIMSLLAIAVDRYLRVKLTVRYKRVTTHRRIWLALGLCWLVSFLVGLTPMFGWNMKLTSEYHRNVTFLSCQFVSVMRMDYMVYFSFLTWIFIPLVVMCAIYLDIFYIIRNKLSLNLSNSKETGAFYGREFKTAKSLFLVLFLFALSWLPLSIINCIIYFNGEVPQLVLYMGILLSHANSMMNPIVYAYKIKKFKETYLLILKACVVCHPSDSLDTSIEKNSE
UniProt P30542, whole entry: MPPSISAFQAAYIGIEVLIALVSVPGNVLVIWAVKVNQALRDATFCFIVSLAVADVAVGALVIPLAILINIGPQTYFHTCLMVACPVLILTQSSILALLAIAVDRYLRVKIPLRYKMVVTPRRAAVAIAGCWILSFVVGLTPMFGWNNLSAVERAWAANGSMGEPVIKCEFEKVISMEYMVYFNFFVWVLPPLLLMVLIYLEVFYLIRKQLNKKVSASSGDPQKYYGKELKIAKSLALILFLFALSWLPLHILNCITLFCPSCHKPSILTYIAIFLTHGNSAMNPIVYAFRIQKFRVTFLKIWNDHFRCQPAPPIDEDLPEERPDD

How the values were obtained:
A3 adenosine receptor = molecular target: T1, A3 adenosine receptor (Homo sapiens, UniProt P0DMS8); test: Radioligand binding affinity, A3 adenosine receptor ([125I]AB-MECA, CHO cells); conditions: nM ± SEM; read-out: Ki(nM) hA3
T1 construct: expressed in transfected cells; host or cells: CHO cells (ATCC No. CCL-61)

A2A adenosine receptor = molecular target: T2, A2A adenosine receptor (Homo sapiens, UniProt P29274); test: Radioligand binding affinity, A2A adenosine receptor ([3H]CGS-21680, HEK 293 cell); conditions: nM ± SEM; read-out: Ki(nM) hA2A
T2 construct: expressed in transfected cells; host or cells: HEK 293 cell

A1 adenosine receptor = molecular target: T3, A1 adenosine receptor (Homo sapiens, UniProt P30542); test: Radioligand binding affinity, A1 adenosine receptor ([3H]CCPA, CHO cells); conditions: nM ± SEM; read-out: Ki(nM) hA1
T3 construct: expressed in transfected cells; host or cells: CHO cells (ATCC No. CCL-61)

Structure (SMILES) | Ki (A3 adenosine receptor) [nM] | Ki (A2A adenosine receptor) [nM] | Ki (A1 adenosine receptor) [nM]
O[C@@H]1[C@H](O)CS[C@H]1n1cnc2c(NCc3cccc(Cl)c3)nc(Cl)nc21 [Example 2, (2R,3R,4S)-2-(2-chloro-6-(3-chlorobenzylamino)-9H-purin-9-yl)tetrahydrothiophen-3,4-diol] | 1.66 ± 0.9 |  | 
O[C@@H]1[C@H](O)CS[C@H]1n1cnc2c(NCc3cccc(I)c3)ncnc21 [Example 14, (2R,3R,4S)-2-(6-(3-iodobenzylamino)-9H-purin-9-yl)tetrahydrothiophen-3,4-diol] |  | 230 ± 65 | 530 ± 97
